Earlier results in paper PMC7766225, “Structure-Based Discovery and Bioactivity Evaluation of Novel Aurora-A Kinase Inhibitors as Anticancer Agents via Docking-Based Comparative Intermolecular Contacts Analysis (dbCICA)” (Molecules, 2020).

Biological target: T1, Aurora-A kinase (Homo sapiens, UniProt O14965)
T1 sequence (O14965 1-403): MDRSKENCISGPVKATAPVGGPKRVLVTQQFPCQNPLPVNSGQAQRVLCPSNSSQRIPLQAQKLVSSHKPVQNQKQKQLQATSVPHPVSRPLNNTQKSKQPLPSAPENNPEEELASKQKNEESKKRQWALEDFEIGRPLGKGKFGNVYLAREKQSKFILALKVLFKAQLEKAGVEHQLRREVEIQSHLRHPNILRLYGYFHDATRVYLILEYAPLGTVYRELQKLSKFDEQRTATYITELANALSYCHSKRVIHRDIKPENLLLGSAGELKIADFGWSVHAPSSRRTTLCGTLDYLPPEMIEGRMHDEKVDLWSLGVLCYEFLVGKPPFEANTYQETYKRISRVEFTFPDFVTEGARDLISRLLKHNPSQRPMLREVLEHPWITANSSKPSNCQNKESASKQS
Parameters: purchased Invitrogen (Carlsbad, CA, USA)
Details: Table S1, ChEMBL; ref Bebbington, et al., 2009; cited from earlier work

| Structure (SMILES) | Ki |
| --- | --- |
| Cc1cc(Nc2nc(Sc3cccc(Cl)c3Cl)nc3ccccc23)n[nH]1 [Compound 37] | 3 nM |
| Cc1cc(Nc2nc(Sc3ccc(NC(=O)OC(C)(C)C)cc3)nc3ccccc23)n[nH]1 [Compound 46] | 9 nM |
| Cc1cc(Nc2nc(N(C)c3ccccc3)nc3ccccc23)n[nH]1 [Compound 31] | 17 nM |
| Cc1cc(Nc2nc(Sc3c(Cl)cccc3Cl)nc3ccccc23)n[nH]1 [Compound 39] | 5 nM |
| Cc1cc(Nc2nc(Oc3ccccc3)nc3ccccc23)n[nH]1 [Compound 32] | 36 nM |
| Cc1cc(Nc2nc(Sc3ccc(Cl)cc3)nc3ccccc23)n[nH]1 [Compound 36] | 6 nM |
| COc1ccccc1Sc1nc(Nc2cc(C)[nH]n2)c2ccccc2n1 [Compound 41] | 24 nM |
| Cc1cc(Nc2nc(Sc3ccc4ccccc4c3)nc3ccccc23)n[nH]1 [Compound 44] | 1 nM |
| COc1ccc(Sc2nc(Nc3cc(C)[nH]n3)c3ccccc3n2)cc1 [Compound 42] | 9 nM |
| CC(=O)Nc1ccc(Sc2nc(Nc3cc[nH]n3)c3ccccc3n2)cc1 [Compound 48] | 24 nM |
| Cc1cc(Nc2nc(Sc3ccc(Cl)cc3Cl)nc3ccccc23)n[nH]1 [Compound 38] | 2 nM |
| Cc1cc(Nc2nc(Sc3ccccc3Cl)nc3ccccc23)n[nH]1 [Compound 34] | 5 nM |
| Cc1cc(Nc2nc(Sc3ccccc3)nc3ccccc23)n[nH]1 [Compound 33] | 20 nM |
| Cc1cc(Nc2nc(Nc3ccccc3)nc3ccccc23)n[nH]1 [Compound 30] | 24 nM |
| Cc1cc(Nc2nc(Sc3cccc(Cl)c3)nc3ccccc23)n[nH]1 [Compound 35] | 4 nM |
| COc1ccc(Sc2nc(Nc3cc(C)[nH]n3)c3ccccc3n2)cc1OC [Compound 43] | 17 nM |
| CCC(=O)Nc1ccc(Sc2nc(Nc3cc(C)[nH]n3)c3ccccc3n2)cc1 [Compound 47] | 1 nM |
| Cc1cc(Nc2nc(Sc3ccc(Cl)c(Cl)c3)nc3ccccc23)n[nH]1 [Compound 40] | 2 nM |
